Experimental findings from patent publication US7838231 (REGENTS OF THE UNIVERSITY OF MICHIGAN, dated 2010) are described below.

This data set concerns the molecule itself. Description: direct yeast two-hybrid assay, NPHP5 as bait and as prey.

B1: full-length human nephrocystin-5 (NPHP5), yeast two-hybrid fusion (other, not shown: small tags and cut ends)
chain: MKPTGTDPRILSIAAEVAKSPEQNVPVILLKLKEIINITPLGSSELKKIKQDIYCYDLIQYCLLVLSQDYSRIQGGWTTISQLTQILSHCCVGLEPGEDAEEFYNELLPSAAENFLVLGRQLQTCFINAAKAEEKDELLHFFQIVTDSLFWLLGGHVELIQNVLQSDHFLHLLQADNVQIGSAVMMMLQNILQINSGDLLRIGRKALYSILDEVIFKLFSTPSPVIRSTATKLLLLMAESHQEILILLRQSTCYKGLRRLLSKQETGTEFSQELRQLVGLLSPMVYQEVEEQKLHQAACLIQAYWKGFQTRKRLKKLPSAVIALQRSFRSKRSKMLLEINRQKEEEDLKLQLQLQRQRAMRLSRELQLSMLEIVHPGQVEKHYREMEEKSALNIQKHWRGYRERKNFHQQRQSLIEYKAAVTLQRAALKFLAKCRKKKKLFAPWRGLQELTDARRVELKKRVDDYVRRHLGSPMSDVVSRELHAQAQERLQHYFMGRALEERAQQHREALIAQISTNVEQLMKAPSLKEAEGKEPELFLSRSRPVAAKAKQAHLTTLKHIQAPWWKKLGEESGDEIDVPKDELSIELENLFIGGTKPP
notes: Full-length NPHP5 cDNA (598 amino acid residues) fused to a GAL4 domain; also called KIAA0036
For the protein B1, the binding result is on record as “no binding”.
